Paper PMC8405998, “Catalytic mechanism of ancestral L-lysine oxidase assigned by sequence data mining” (The Journal of Biological Chemistry, 2021)

Tested on: NCCCC[C@H](N)C(=O)O
Experiment: purified protein
Conditions: 100 mM Bis-Tris-HCl pH 7.0, O2 as co-substrate

Row | Substance | Km | kcat | kcat/Km
1 | AncLLysO (synthetic construct; Y518A) | 4100 ± 300 µM | 1.4 s⁻¹ | 340 M⁻¹ s⁻¹
2 | AncLLysO (synthetic construct; Y255A) | 4400 ± 300 µM | 0.21 s⁻¹ | 50 M⁻¹ s⁻¹
3 | AncLLysO (synthetic construct; G253P) | 11300 ± 1300 µM | 1.1 s⁻¹ | 90 M⁻¹ s⁻¹
4 | AncLLysO (synthetic construct; Y255F) | 150 ± 20 µM | 3.4 s⁻¹ | 22600 M⁻¹ s⁻¹
5 | AncLLysO (synthetic construct) | 300 ± 30 µM | 21.7 s⁻¹ | 72300 M⁻¹ s⁻¹
6 | AncLLysO (synthetic construct; G253A) | 1700 ± 300 µM | 10.4 s⁻¹ | 6100 M⁻¹ s⁻¹
7 | AncLLysO (synthetic construct; Y270F) | 1000 ± 200 µM | 13.5 s⁻¹ | 13500 M⁻¹ s⁻¹
8 | AncLLysO (synthetic construct; Y518F) | 200 ± 30 µM | 9.3 s⁻¹ | 46500 M⁻¹ s⁻¹
9 | AncLLysO (synthetic construct; Y256A) | 3000 ± 500 µM | 6 s⁻¹ | 2000 M⁻¹ s⁻¹
10 | AncLLysO (synthetic construct; Y256F) | 600 ± 80 µM | 15 s⁻¹ | 25000 M⁻¹ s⁻¹
